Experimental data reported in publication PMC7375048, “The impact of acute rosiglitazone on insulin pharmacokinetics at the blood‐brain barrier” (Endocrinology, Diabetes & Metabolism, 2020).
Counter-ions that a name gives are not always drawn.

Columns and labels:
murine BBB [1] = assay: Transcardiac brain perfusion of 125I-insulin, multiple-time regression analysis; assay type: in vivo, mouse; settings: no serum
Text: (§1) This experimental set‐up was based on previous studies investigating the acute effect of rosiglitazone. ^35 , ^36
The perfusate was freshly prepared for each study day. Perfusate was collected throughout the study to determine the average cpm/µL of perfusate. After perfusion, the olfactory bulb was collected and the brain dissected into regions (frontal/parietal/occipital cortex, striatum, hypothalamus, hippocampus, thalamus, cerebellum, midbrain and pons/medulla) according to Glowinski and Iversen; ^38 each region was weighed separately. The amount of radioactivity was determined by a gamma counter (Wizard2, Perkin Elmer). Brain/perfusate ratios are calculated by dividing the cpm in a gram of brain by the cpm in a µL of perfusate to yield units of µL/g.
Exposure time is calculated by the formula:(1) Exposure time=∫0tCp(t)dt/Cp(t) where Cp(t) is the level of radioactivity (cpm) in serum at time (t). Exposure time corrects for the clearance of peptide from the blood. […] The slope of the linearity measures K i and is reported with its standard error term. The y‐intercept of the linearity measures V i, the initial volume of distribution in brain at t = 0. ^37 Blasberg, Fenstermacher and Patlak originally described V i as the volume of test substance that rapidly and reversibly exchanges with the plasma (Blasberg 1983). For cardiac perfusion studies, formula 2 is employed, using the brain/perfusate ratios and the clock time is used in place of exposure time.

[2] = system: human brain endothelial cells; settings: cited from earlier work
murine BBB [3] = assay: Blood-to-brain 125I-insulin transport, multiple-time regression analysis; assay type: in vivo, mouse; settings: CD-1 mice; label = treatment: 10 µg RSG iv 30 min before and/or 1 µg S961 co-injected iv with 125I-insulin; 0.5-10 min; albumin-corrected brain/serum ratio; slope ± SE, n = 6-10/group
Procedure: as §1
Mice were decapitated, and the brain was collected immediately, dissected into the hypothalamus, olfactory bulb and remaining whole brain and weighed. Blood was centrifuged at 5400g for 10 min and serum collected. Radioactivity in 50 µL of serum and entire brain samples were counted in a gamma counter (Wizard2; Perkin Elmer).
Exposure time is calculated by the formula:(1) Exposure time=∫0tCp(t)dt/Cp(t) where Cp(t) is the level of radioactivity (cpm) in serum at time (t). Exposure time corrects for the clearance of peptide from the blood. […] The slope of the linearity measures K i and is reported with its standard error term. […] For cardiac perfusion studies, formula 2 is employed, using the brain/perfusate ratios and the clock time is used in place of exposure time.

[4] = CD-1 mice, 10 µg RSG iv 30 min before, ± SE, n = 7-11/group

SMILES: CN(CCOc1ccc(CC2SC(=O)NC2=O)cc1)c1ccccn1 (stereo not drawn) [RSG, rosiglitazone maleate]
- effect on rate of 125I-insulin BBB transport or vascular binding, cardiac perfusion (murine BBB [1]; 10 µg RSG pretreatment, whole brain, olfactory bulb or hypothalamus): no difference
- 125I-insulin BBB transport rate K i following cardiac perfusion, whole brain (murine BBB [1]; CD-1 mice, 10 µg RSG iv 30 min before, Zlokovic's buffer 2 mL/min, 1-5 min, ± SE, n = 7-11/group): 1.90 ± 0.50 µL/g‐min
- 125I-insulin BBB transport rate K i following cardiac perfusion, hypothalamus (murine BBB [1]; [4]): 4.55 ± 1.65 µL/g‐min
- 125I-insulin BBB transport rate K i following cardiac perfusion, olfactory bulb (murine BBB [1]; [4]): 2.53 ± 0.73 µL/g‐min
- 125I-insulin vascular binding V i following cardiac perfusion, hypothalamus (murine BBB [1]; [4]): -1.8 ± 5.4 µL/g
- 125I-insulin vascular binding V i following cardiac perfusion, olfactory bulb (murine BBB [1]; [4]): 18.6 ± 2.4 µL/g
- 125I-insulin vascular binding V i following cardiac perfusion, whole brain (murine BBB [1]; [4]): 7.7 ± 1.7 µL/g
- brain‐to‐blood transport relative to blood‐to‐brain influx [2]: two times greater
- 125I-insulin BBB transport rate K i, whole brain (murine BBB [3]): 1.16 ± 0.23 µL/g‐min
